Our source for the Ki values is ChEMBL document CHEMBL1811872, “Tryptophan 2,3-dioxygenase (TDO) inhibitors. 3-(2-(pyridyl)ethenyl)indoles as potential anticancer immunomodulators” (J Med Chem, 2011).

Protein sequences, listed by entry. Tags and fused reporters are not part of them. Lines headed by an entry give the natural chain unless they say otherwise; changes in a name come on top.
UniProt P48775: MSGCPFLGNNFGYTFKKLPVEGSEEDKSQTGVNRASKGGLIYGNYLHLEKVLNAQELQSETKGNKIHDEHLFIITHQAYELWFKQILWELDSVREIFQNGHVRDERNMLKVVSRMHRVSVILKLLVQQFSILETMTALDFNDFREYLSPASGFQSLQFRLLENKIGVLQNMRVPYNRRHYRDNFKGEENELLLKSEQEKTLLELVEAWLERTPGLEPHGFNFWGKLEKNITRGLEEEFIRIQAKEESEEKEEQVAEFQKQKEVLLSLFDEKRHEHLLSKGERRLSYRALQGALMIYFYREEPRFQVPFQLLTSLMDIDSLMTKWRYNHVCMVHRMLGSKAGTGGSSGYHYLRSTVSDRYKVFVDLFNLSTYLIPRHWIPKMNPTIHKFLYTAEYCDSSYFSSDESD

The target of this test is Tryptophan 2,3-dioxygenase (Homo sapiens, UniProt P48775). The test is described as follows: Competitive inhibition of human recombinant TDO expressed in Escherichia coli BL21 using L-tryptophan as substrate by measuring conversion of N-formylkynurenine into kynurenine after 30 mins by Michaelis-Menten steady state analysis.

On to `Fc1ccc2c(/C=C/c3cccnc3)c[nH]c2c1`, for which the inhibition constant Ki came to 0.88 µM.

A word on the Ki: it is a dissociation constant, usually derived from enzyme kinetics or from competition with a known ligand.
